The values that follow come from paper PMC10218254 (International Journal of Molecular Sciences, 2023).

This assay has as its target SARS-CoV-2 PL^pro (Severe acute respiratory syndrome coronavirus 2, UniProt P0DTD1). The assay is described as follows: cell-based.

For `COC(=O)/C=C/C(=O)NNC(=O)CCc1ccccc1C(=O)NC(C)c1cccc2ccccc12` (stereo not shown) [compound 3, reference compound], the half-maximal effective concentration (EC50) (in general, the concentration needed to bring the measured effect to its halfway point) came to 2.97 µM. This counts as single-digit micromolar.
